The source of these data is PMC11997890, “In Vivo and In Vitro Pharmacokinetic Studies of a Dual Topoisomerase I/II Inhibitor” (ACS Pharmacology & Translational Science, 2025).

Sequences of proteins named here, by UniProt entry; tags and fusion partners are left off.
UniProt P08183, whole entry, species assumed: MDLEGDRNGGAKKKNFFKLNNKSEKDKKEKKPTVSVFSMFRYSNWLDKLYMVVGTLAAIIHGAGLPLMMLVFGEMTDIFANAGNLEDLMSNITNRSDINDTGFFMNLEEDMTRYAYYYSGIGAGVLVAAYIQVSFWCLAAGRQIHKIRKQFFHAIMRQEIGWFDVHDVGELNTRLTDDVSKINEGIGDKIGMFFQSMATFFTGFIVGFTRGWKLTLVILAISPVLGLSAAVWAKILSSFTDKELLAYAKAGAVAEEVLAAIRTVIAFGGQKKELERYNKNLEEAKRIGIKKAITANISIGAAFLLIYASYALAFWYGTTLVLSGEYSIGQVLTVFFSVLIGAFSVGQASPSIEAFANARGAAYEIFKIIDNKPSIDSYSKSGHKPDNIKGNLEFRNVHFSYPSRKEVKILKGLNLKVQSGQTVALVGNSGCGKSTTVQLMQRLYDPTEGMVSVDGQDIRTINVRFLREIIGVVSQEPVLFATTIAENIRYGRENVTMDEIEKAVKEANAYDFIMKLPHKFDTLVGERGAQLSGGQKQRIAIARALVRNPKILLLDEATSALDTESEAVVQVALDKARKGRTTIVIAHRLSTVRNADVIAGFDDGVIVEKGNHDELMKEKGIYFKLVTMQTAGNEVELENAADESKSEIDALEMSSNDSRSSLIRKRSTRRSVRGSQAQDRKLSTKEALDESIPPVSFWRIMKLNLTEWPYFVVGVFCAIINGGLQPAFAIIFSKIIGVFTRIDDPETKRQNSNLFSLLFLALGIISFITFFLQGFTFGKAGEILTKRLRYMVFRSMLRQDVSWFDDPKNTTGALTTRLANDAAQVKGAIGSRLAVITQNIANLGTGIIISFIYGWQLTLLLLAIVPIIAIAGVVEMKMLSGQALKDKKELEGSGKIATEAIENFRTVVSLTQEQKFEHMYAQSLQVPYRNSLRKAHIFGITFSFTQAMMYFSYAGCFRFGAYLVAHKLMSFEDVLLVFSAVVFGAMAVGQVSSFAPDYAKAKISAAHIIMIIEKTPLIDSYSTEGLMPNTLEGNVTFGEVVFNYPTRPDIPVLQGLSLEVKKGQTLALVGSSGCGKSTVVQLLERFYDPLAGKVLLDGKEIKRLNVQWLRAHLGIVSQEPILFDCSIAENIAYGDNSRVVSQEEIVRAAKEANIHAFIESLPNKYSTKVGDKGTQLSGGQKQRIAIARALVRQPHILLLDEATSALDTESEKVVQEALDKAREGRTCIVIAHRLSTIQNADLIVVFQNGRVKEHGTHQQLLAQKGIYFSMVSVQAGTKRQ

SMILES strings stand for the structures.

In the data set the target is T1, P-GP (ABCB1) (Homo sapiens, UniProt P08183).
T1 construct: expressed in transfected cells; host or cells: MDCK (Madin Darby canine kidney)
As to the kind of experiment: Transporter inhibition, calcein-AM accumulation in MDCK cells (P-GP overexpression). Type of data set: cell-based. The note with it: intracellular accumulation of calcein-AM. As to the method:
The inhibitory characteristics of P8-D6 on the classic efflux transporters P-GP and BCRP (ABCG2) were evaluated (Figure ).
A potential interaction of P8-D6 with the export protein P-GP (ABCB1) was evaluated in MDCK (P-GP overexpression) and MDCKII (BCRP overexpression) cells. P-GP interaction was determined by the measurement of calcein accumulation within the cells according to Bauer et al. Calcein-acetoxymethylester (calcein-AM) is a nonfluorescent, lipophilic and therefore highly cell-permeable ester. Once inside the cell, the ester bonds are rapidly cleaved by nonspecific esterases, generating highly fluorescent calcein, which is trapped inside the cell because of its hydrophilic nature. Because calcein-AM is a substrate for P-GP, inhibition of the transporter decreases efflux, which results in a higher intracellular fluorescence signal. Cells were washed 3 times with 37 °C Krebs–Ringer buffer and subsequently incubated with increasing concentrations of the test compound for 15 min at 37 °C. […] Fluorescence was measured using a Fluoroskan Ascent plate reader (Labsystems, Helsinki, FIN) with an excitation wavelength of 485 nm and an emission wavelength of 520 nm. […] All fluorescence values were corrected by subtracting the background fluorescence. The increase in cellular fluorescence caused by the test compound was referred to the fluorescence of the control (100%). […]

By IC50 is commonly meant the point on the concentration scale where inhibition reaches its midpoint. With `COc1ccc2c3c([nH]c2c1)[C@H](CC(C)C)N1C(=O)[C@H](CCC(=O)OC(C)(C)C)NC(=O)[C@@H]1C3` [KO-143, reference compound], the IC50 is 4.23 µM.
